The values below come from US20240218074A1 (AKESO BIOPHARMA, published 2024).

A word on the EC50: it is the concentration that produces a half-maximal response.

Substitutions are numbered along the chain they refer to.

Assay [1] addresses T1, human NT5E-Biotin (NT5E is GenbankID: NP_002517.1, position: 1-552) (human, UniProt P21589 27-552, biotin label (site not stated)).
T1 construct: range 1-552; Recombinant soluble antigen made by Akeso (batch 20160505), biotinylated and captured on streptavidin; also called HNT5E-Biotin; human NT5E (1-552)-Biotin
T1 sequence (looked up): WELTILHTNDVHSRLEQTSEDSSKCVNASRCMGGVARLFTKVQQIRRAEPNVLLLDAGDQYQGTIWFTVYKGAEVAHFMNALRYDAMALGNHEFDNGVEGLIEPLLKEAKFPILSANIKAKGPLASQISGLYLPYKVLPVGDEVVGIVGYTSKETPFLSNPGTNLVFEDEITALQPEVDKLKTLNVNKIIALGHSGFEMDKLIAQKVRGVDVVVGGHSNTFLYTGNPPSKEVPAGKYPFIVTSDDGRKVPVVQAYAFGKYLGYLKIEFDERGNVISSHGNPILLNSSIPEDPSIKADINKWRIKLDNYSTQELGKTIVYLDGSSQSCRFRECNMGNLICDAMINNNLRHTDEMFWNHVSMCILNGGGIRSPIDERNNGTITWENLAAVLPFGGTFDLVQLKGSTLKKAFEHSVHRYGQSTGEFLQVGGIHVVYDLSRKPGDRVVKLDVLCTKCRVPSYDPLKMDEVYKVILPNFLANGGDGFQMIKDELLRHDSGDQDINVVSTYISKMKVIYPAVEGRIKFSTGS
The assay can be described thus: ELISA on streptavidin-captured human NT5E-Biotin; HRP goat anti-human IgG. (In an ELISA, binding on a coated surface is turned into a signal by an enzyme label.)

The target in assay [2] is T1, human NT5E-Biotin (NT5E is GenbankID: …). Description: ELISA on streptavidin-captured human NT5E-Biotin; antibody 0.333 ug/mL; replicate 1.
The target is the same in assay [3]. Description: ELISA on streptavidin-captured human NT5E-Biotin; antibody 0.333 ug/mL; replicate 2.
Assay [4] has the same target. Description: ELISA on streptavidin-captured human NT5E-Biotin; antibody 0 (blank well); replicate 1.
Assay [5] shares this target. Description: ELISA on streptavidin-captured human NT5E-Biotin; antibody 0 (blank well); replicate 2.
For assay [6] the target is unchanged. The assay can be described thus: ELISA on streptavidin-captured human NT5E-Biotin; antibody 1:3 dilution of 0.333 ug/mL; replicate 1.
For assay [7] the target is unchanged. Description: ELISA on streptavidin-captured human NT5E-Biotin; antibody 1:3 dilution of 0.333 ug/mL; replicate 2.
For assay [8] the target is unchanged. Description: ELISA on streptavidin-captured human NT5E-Biotin; antibody 1:9 dilution of 0.333 ug/mL; replicate 1.
For assay [9] the target is unchanged. Description: ELISA on streptavidin-captured human NT5E-Biotin; antibody 1:27 dilution of 0.333 ug/mL; replicate 1.
The target is the same in assay [10]. Description: ELISA on streptavidin-captured human NT5E-Biotin; antibody 1:27 dilution of 0.333 ug/mL; replicate 2.
For assay [11] the target is unchanged. Description: ELISA on streptavidin-captured human NT5E-Biotin; antibody 1:81 dilution of 0.333 ug/mL; replicate 1.
Assay [12] has the same target. Description: ELISA on streptavidin-captured human NT5E-Biotin; antibody 1:81 dilution of 0.333 ug/mL; replicate 2.
Assay [13] shares this target. Description: ELISA on streptavidin-captured human NT5E-Biotin; antibody 1:243 dilution of 0.333 ug/mL; replicate 1.
Assay [14] has the same target. Description: ELISA on streptavidin-captured human NT5E-Biotin; antibody 1:243 dilution of 0.333 ug/mL; replicate 2.
Assay [15] has the same target. Description: ELISA on streptavidin-captured human NT5E-Biotin; antibody 1:729 dilution of 0.333 ug/mL; replicate 1.
Assay [16] has the same target. Description: ELISA on streptavidin-captured human NT5E-Biotin; antibody 1:729 dilution of 0.333 ug/mL; replicate 2.

B1: humanized anti-CD73 antibody 19F3H2L2 (antibody, IgG1, V domains shown)
VH: QVQLVQSGAEVVKPGASVKVSCKASGYSFTGYTMNWVRQAPGQNLEWIGLINPYNAGTSYNQKFQGKVTLTVDKSTSTAYMELSSLRSEDTAVYYCARSEYRYGGDYFDYWGQGTTLTVSS
VL: DIVMTQSPSSLAVSVGERVTISCKSSQSLLNSSNQKNYLAWYQQKPGQAPKLLIYFASTRESGVPDRFSGSGSGTDFTLTISSVQAEDVADYYCQQHYDTPYTFGGGTKLEIKR
In assay [1], B1 returned an EC50 of 0.064 nM. The “OD (450 nm)” value was found to be 2.6 OD450 in [2]; 2.69 OD450 in [3]; 0.119 OD450 in assay [4]; 0.123 OD450 in assay [5]; 2.58 OD450 in [6]; 2.62 OD450 in assay [7]. Also, the “OD (450 nm)” value amounted to 2.16 OD450 in [8]; 1.58 OD450 in assay [9]; 1.68 OD450 in [10]; 0.87 OD450 in [11]; 0.933 OD450 in [12]; 0.434 OD450 in assay [13]. Also, the entries for the “OD (450 nm)” value in assay [14], in [15] and in assay [16] were 0.454 OD450, 0.239 OD450 and 0.247 OD450, respectively.

B2: humanized anti-CD73 antibody 19F3H1L1 (antibody, IgG1, V domains shown)
VH: B1 VH with V5Q, V18M, V20M, R38K, P41H, V68A
VL: not shown
With B2, the EC50 in [1] is 0.049 nM. For the same molecule, the “OD (450 nm)” value in [2] stood at 2.65 OD450; in assay [4], 0.125 OD450; in assay [5], 0.123 OD450; in assay [6] it was 2.6 OD450; in [7], 2.7 OD450; in assay [8], 2.41 OD450. Also, the “OD (450 nm)” value was found to be 1.82 OD450 in assay [9]; 1.82 OD450 in assay [10]; 1.04 OD450 in [11]; 1.03 OD450 in assay [12]; 0.525 OD450 in [13]; 0.516 OD450 in assay [14]. The results for the “OD (450 nm)” value in assay [15] and in assay [16] were 0.26 OD450 and 0.273 OD450, respectively.
